The results in this text go back to patent US6476021B1 (priority 1997, dated 2002).

The chains behind the UniProt entries cited, without tags or fusion partners. Residues count along the entry.
UniProt P11541, 2-856: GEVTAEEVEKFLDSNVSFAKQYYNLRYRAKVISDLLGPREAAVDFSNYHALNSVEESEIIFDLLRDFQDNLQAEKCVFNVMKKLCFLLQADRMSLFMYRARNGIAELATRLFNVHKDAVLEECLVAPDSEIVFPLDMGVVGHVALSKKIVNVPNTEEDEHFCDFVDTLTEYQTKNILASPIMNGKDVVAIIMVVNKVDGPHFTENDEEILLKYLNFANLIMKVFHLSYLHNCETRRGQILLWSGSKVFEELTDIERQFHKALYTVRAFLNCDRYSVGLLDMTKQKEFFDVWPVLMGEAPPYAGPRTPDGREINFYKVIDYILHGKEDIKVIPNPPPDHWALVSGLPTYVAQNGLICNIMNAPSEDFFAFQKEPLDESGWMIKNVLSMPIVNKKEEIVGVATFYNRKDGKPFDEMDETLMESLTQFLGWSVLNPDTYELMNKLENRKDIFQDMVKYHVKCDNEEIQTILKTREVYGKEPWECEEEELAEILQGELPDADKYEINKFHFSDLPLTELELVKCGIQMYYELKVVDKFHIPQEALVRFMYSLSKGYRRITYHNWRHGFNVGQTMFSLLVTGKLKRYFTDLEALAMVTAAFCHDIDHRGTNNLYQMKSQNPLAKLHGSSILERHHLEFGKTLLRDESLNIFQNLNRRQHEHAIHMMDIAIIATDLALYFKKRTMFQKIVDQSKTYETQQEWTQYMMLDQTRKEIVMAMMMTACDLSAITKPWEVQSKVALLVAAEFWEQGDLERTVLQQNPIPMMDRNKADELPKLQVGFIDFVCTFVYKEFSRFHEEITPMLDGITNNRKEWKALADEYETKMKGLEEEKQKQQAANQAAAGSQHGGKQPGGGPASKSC
UniProt P23439, 2-850: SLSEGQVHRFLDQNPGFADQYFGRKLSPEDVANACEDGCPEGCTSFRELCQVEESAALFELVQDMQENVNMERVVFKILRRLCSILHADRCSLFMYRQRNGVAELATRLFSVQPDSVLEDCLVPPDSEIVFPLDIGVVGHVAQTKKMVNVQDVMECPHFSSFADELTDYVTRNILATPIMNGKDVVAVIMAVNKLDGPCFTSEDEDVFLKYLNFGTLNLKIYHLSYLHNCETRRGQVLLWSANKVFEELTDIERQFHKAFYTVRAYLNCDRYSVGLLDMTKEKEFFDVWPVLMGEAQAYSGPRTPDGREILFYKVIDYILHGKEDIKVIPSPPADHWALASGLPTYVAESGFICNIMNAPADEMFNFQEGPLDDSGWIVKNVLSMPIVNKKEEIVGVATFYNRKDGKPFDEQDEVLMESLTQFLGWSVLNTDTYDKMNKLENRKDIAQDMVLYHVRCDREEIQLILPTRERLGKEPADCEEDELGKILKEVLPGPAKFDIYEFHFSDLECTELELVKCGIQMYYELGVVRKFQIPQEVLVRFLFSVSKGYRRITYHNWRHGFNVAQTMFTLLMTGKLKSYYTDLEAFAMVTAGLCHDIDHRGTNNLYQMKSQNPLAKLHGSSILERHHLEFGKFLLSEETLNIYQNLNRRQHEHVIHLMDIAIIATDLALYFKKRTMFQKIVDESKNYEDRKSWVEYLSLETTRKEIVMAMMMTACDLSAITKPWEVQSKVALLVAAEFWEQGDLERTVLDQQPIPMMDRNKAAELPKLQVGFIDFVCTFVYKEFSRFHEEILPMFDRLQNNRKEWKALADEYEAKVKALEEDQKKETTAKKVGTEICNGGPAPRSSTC
UniProt A0A8I3NYE0, 1-1135: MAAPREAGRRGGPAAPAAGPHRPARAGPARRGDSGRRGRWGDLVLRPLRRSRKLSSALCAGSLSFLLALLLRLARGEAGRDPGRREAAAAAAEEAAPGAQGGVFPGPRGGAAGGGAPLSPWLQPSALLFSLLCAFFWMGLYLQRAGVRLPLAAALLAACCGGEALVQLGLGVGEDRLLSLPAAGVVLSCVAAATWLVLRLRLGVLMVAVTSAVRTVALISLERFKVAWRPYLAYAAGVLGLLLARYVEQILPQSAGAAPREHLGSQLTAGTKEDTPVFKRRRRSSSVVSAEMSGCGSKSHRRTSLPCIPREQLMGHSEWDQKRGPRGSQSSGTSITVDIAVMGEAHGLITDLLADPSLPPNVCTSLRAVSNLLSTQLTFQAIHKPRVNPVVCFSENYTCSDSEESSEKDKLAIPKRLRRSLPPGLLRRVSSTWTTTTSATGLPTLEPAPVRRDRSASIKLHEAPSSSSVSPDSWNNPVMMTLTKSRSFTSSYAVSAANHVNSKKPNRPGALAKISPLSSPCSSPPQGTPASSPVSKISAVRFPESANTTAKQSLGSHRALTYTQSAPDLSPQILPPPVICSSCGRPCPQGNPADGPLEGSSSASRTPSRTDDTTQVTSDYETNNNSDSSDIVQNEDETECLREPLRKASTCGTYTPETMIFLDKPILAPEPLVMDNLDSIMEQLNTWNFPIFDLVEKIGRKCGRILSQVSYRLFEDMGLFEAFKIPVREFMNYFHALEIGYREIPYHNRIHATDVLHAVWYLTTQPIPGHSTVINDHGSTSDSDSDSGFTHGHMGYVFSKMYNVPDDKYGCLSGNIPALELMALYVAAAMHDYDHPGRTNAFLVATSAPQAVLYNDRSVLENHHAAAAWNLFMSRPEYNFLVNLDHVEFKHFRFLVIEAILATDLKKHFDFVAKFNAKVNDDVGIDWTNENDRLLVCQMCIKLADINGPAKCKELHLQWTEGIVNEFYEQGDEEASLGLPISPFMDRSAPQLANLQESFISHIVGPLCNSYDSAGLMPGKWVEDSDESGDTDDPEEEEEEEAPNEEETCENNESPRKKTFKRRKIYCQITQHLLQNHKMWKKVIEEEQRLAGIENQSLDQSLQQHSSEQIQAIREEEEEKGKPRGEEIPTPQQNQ

pIC50: −log10 of the molar value.

The target in data set [1] is PDE type VI (Bos taurus, UniProt P11541+P23439). As to conditions: read-out: Inhibition Activity IC50 Type VI; activated PDE type VI from bovine retina; 1 μM substrate.
For data set [2], the target named is PDE type III (Canis lupus familiaris, UniProt A0A8I3NYE0). As to conditions: read-out: Inhibition Activity IC50 Type III; PDE type III from canine aorta; 1 μM substrate.
The target of data set [3] is PDE type V (Canis lupus familiaris, UniProt O77746). As to conditions: read-out: Inhibition Activity IC50 Type V; PDE type V from canine aorta; 1 μM substrate.
For data set [4] the following is noted: rat, in vivo, 100 mg/kg.

The pIC50 is the negative decadic logarithm of the IC50, by convention in mol/L. “5-(1-benzotriazolylmethyloxy)-10-bromo-2-(3-pyridylmethyl)-3H-pyrido[3,2,1-kl]phenothiazin-3-one [Example 47]”: the pIC50 in data set [1] was 7.15; in data set [2], 4.85; in data set [3] it was 8.35.

With “5-benzyl-4H[6]-azaindolo[3,2,1-ij]quinolin-4-one [Example 29]”, in data set [4], the “body weights and general symptoms” value is “nothing abnormal”.
